Patent publication EP0567613B1, “COMPOSITIONS FOR THERAPY AND PREVENTION OF CANCER” (The Government of the United States of America, as …, priority 1991, dated 1993)

System: premalignant 10T1/2 cells
Test: cells
Settings: Mus musculus, Adipocyte, 168 h, read-out: concentration at which increased lipid accumulation was evident
Description: C. Quantitation of adipocytosis. Lipids stained with Oil-Red O were extracted with butanol, and the optical density at 510 nm determined.
Lower: Quantitation of adipocytosis. Cells were fixed with 37% formaldehyde and stained with Oil-Red O. The stained intracellular lipid was extracted with butanol, and the optical density was determined using a Titertek Multiskan MC, manufactured by Flow Laboratories, at a wavelength 510 nm.

O=C([O-])Cc1ccccc1.[Na+] [NaPA, sodium phenylacetate]
minimal effective concentration: 24 µg/mL
